{"source": "patent US20240074473A1", "about": "“METHOD FOR INDUCING HYPERTROPHIC MUSCLE FIBERS FOR INDUSTRIAL MEAT PRODUCTION” (Yeda Research and Development Co. Ltd., priority 2021, published 2024)", "key": {"[1]": {"experiment": "Risk categorization of cell culture media ingredients", "from_the_text": "Category 1: These cell culture media components are food ingredients/additives that are GRAS or permitted by federal regulation without limitation on use. Exemplary compounds in this category include innocuous ingredients such as sugars, pH buffers, water soluble vitamins, and common antioxidants such as tocopherols.\nCategory 2: These cell culture media components are common dietary nutrients and are anticipated to have GRAS status for food use or be permitted by regulation for addition to food. Examples of such compounds include most of the inorganic salts and macronutrients that are present within the cell culture media. […] Majority of nutrients present within the poultry cell-based meat may be readily measured using common validated methods for food composition testing. Batch analyses of multiple lots of the finished product may be obtained to validate the above assumptions. In some instances, consideration of established safe levels (e.g., ADI, UL) derived from a relevant authoritative body (e.g., U.S. FDA, EFSA, JECFA, FSANZ, U.S. EPA) may be leveraged to support safety. If comparisons of anticipated dietary intakes relative to an authoritative reference intake value is used, consideration of additive intakes from all dietary sources may be considered. In the absence of an authoritative reference intake value, published NOAELs from animal toxicology studies may be used to evaluate safety using standard scientific procedures for food safety evaluation. A margin of exposure (MoE) of 100-fold or greater between the NOAEL and estimated dietary intakes from food exposures is typically considered adequate to support safety. in situations where the MoE is <100-fold, additional measures for further reduction of the media component may be necessary, or further characterization of intraspecies/interspecies differences in metabolism may be necessary. These situations also require careful consideration of the regulatory status on a case-by basis (e.g., premarket approval as a food additive or GRAS evaluation required).\nFor example, situations where the compound is not detectable in finished product or is present at equivalent levels in comparator foods, compounds that are thermo-labile and will be digested during cooking, and/or compounds that are expected to be digested to innocuous compounds following ingestion. […] For Category 3 substances a final consideration in the safety assessment process may involve hazard characterization of the potential for a substance to produce toxic biological effects outside of the endpoints measured in a sub-chronic rat toxicity study. […] Considerations for allergenicity, biological effects in humans (e.g., effects on blood pressure), and synergistic effects with other media components also may be evaluated. […]"}, "[2]": {"details": "cited from earlier work; for Safe Reference Level for Human Dietary Intake: Iron UL: as iron"}, "[3]": {"experiment": "Maximum estimated dietary exposure to media ingredients per 100 g serving", "details": "assumption of complete transfer of media components to the finished product on a wt/wt basis"}, "[4]": {"details": "cell culture media ingredient used during meat production"}}, "note": "Read-outs that look alike come from different tables or passages of the source."}
{"substance": "FERRIC AMMONIUM CITRATE", "values": [{"measurement": "Risk Assessment Category", "setting": "[1]; [4]", "result": 2}, {"measurement": "Safe Reference Level for Human Dietary Intake: Iron UL", "setting": "[2]", "result": "Iron UL = 40 to 45 mg"}]}
{"substance": "FERRIC CITRATE", "values": [{"measurement": "Risk Assessment Category", "setting": "[1]; [4]", "result": 2}]}
{"substance": "FERRIC NITRATE-9H2O", "values": [{"measurement": "Risk Assessment Category", "setting": "[1]", "result": 3}, {"measurement": "Maximum Estimated Exposure per 100 g serving", "setting": "[3]", "result": 0.3, "unit": "mg"}, {"measurement": "Safe Reference Level for Human Dietary Intake: Iron UL", "setting": "[2]", "result": "Iron UL = 40 to 45 mg;"}, {"measurement": "Safe Reference Level for Human Dietary Intake: Nitrate ADI (Acceptable Daily Intake)", "setting": "[2]; as nitrate", "result": "Nitrate ADI = 3.7 mg/kg bw/day"}]}
{"substance": "SODIUM PHOSPHATE DIBASIC-ANHY", "values": [{"measurement": "Risk Assessment Category", "setting": "[1]; [4]", "result": 1}, {"measurement": "Maximum Estimated Exposure per 100 g serving", "setting": "[3]", "result": 4300, "unit": "mg"}]}
